Reference: patent US20080085884A1, “Melanin Concentrating Hormone Receptor-1 Antagonist Pyridinones” (Pfizer Inc, priority 2006, published 2008)

Protein sequences, listed by entry. Tags and fused reporters are not part of them.
UniProt Q99705, whole entry: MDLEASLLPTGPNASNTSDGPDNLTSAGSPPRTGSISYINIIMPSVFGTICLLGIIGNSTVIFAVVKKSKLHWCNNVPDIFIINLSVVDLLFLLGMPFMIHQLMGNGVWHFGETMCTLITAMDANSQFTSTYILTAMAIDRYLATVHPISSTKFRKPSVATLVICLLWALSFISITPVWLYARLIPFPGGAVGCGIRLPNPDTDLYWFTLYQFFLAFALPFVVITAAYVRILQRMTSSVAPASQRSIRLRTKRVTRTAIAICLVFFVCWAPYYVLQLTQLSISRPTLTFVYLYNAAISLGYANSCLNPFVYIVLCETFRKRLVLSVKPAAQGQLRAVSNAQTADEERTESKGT

biological target: human MCHR1 (Homo sapiens, UniProt Q99705); assay: Cyclic AMP assay (MCHR-1 functional antagonism); conditions: read-out: MCHR-1 functional Ki; CHO cells stably expressing human MCHR1; cAMP accumulation with 25 uM forskolin and 0.2 nM MCH, 90 min; Ki from IC50 by Cheng-Prusoff

Structure (SMILES)	Ki [µM]
CC(=O)N(C)[C@@H]1CCN(c2ccc(-n3ccc(OCc4ccccc4)cc3=O)cn2)C1	0.0159
CC(=O)N1CCC[C@H]2CN(c3ccc(-n4ccc(OCc5ccccc5)cc4=O)cn3)C[C@H]21	0.0838
CC(C)(C)OC(=O)N1CCC[C@@H]2CN(c3ccc(-n4ccc(OCc5ccc(F)cc5)cc4=O)cn3)C[C@@H]21	0.00775
CC(C)(C)OC(=O)N1CCC[C@@H]2CN(c3ccc(-n4ccc(OCc5ccccc5)cc4=O)cn3)C[C@@H]21	0.0227
CC(C)(C)OC(=O)N1CCC[C@H]2CN(c3ccc(-n4ccc(OCc5ccc(F)cc5)cc4=O)cn3)C[C@H]21	0.0157
CC(C)(C)OC(=O)N1CCC[C@H]2CN(c3ccc(-n4ccc(OCc5ccccc5)cc4=O)cn3)C[C@H]21	0.0168
CC(C)(C)OC(=O)N[C@@H]1CCN(c2ccc(-n3ccc(OCc4ccccc4)cc3=O)nn2)C1	3.8
CCN(C(=O)OC(C)(C)C)[C@H]1CCN(c2ccc(-n3ccc(OCc4ccccc4)cc3=O)cn2)C1	0.0314
CCN[C@H]1CCN(c2ccc(-n3ccc(OCc4ccccc4)cc3=O)cn2)C1	0.00992
CN1CCC[C@@H]2CN(c3ccc(-n4ccc(OCc5ccccc5)cc4=O)cn3)C[C@@H]21	0.0143
CN1CCC[C@H]2CN(c3ccc(-n4ccc(OCc5ccccc5)cc4=O)cn3)C[C@H]21	0.0194
CN1C[C@@H]2CN(c3ccc(-n4ccc(OCc5ccccc5)cc4=O)cn3)C[C@@H]2C1	0.00347
CNC1(C)CN(c2ccc(-n3ccc(OCc4ccccc4)cc3=O)cn2)C1	0.1
CN[C@H]1CCN(c2ccc(-n3ccc(CCc4ccccc4)cc3=O)cn2)C1	0.0069
CN[C@H]1CCN(c2ccc(-n3ccc(OCc4ccccc4)cc3=O)nn2)C1	0.417
COC(=O)N1CCC[C@@H]2CN(c3ccc(-n4ccc(OCc5ccccc5)cc4=O)cn3)C[C@@H]21	0.0459
COC(=O)N1CCC[C@H]2CN(c3ccc(-n4ccc(OCc5ccccc5)cc4=O)cn3)C[C@H]21	0.0429
N[C@@H]1CCN(c2ccc(-n3ccc(OCc4ccccc4)cc3=O)nn2)C1	0.659
O=c1cc(OCc2ccc(F)cc2)ccn1-c1ccc(N2CCN3CCC[C@H]3C2)nc1	0.116
O=c1cc(OCc2ccccc2)ccn1-c1ccc(N2CC3CCCC2C3)nc1 (stereo not drawn)	0.101
O=c1cc(OCc2ccccc2)ccn1-c1ccc(N2CCN3CCC[C@H]3C2)nc1	0.141
O=c1cc(OCc2ccccc2)ccn1-c1ccc(N2CC[C@@H]3CNC[C@@H]32)nc1	0.0149
O=c1cc(OCc2ccccc2)ccn1-c1ccc(N2C[C@@H]3CCCN[C@@H]3C2)nc1	0.00931
O=c1cc(OCc2ccccc2)ccn1-c1ccc(N2C[C@H]3CCCN[C@H]3C2)nc1	0.00915
CC(=O)N1CC[C@@H]2CN(c3ccc(-n4ccc(OCc5ccccc5)cc4=O)cn3)C[C@@H]21 (relative stereo)	0.11
CC(=O)N1C[C@@H]2CCN(c3ccc(-n4ccc(OCc5ccccc5)cc4=O)cn3)[C@@H]2C1 (relative stereo)	0.201

Structure (SMILES)	Ki [µM]
CC(C)(C)OC(=O)N1CC[C@H]2CN(c3ccc(-n4ccc(OCc5ccccc5)cc4=O)cn3)C[C@H]21 (relative stereo)	0.271
CC(C)(C)OC(=O)N[C@@H]1CN(c2ccc(-n3ccc(OCc4ccccc4)cc3=O)cn2)C[C@H]1C(F)(F)F (relative stereo)	0.258
COC(=O)N1C[C@@H]2CCN(c3ccc(-n4ccc(OCc5ccccc5)cc4=O)cn3)[C@@H]2C1 (relative stereo)	0.072
C[C@@H]1CN(c2ccc(-n3ccc(OCc4ccccc4)cc3=O)cn2)[C@@H](C)CN1 (relative stereo)	2.48
NC[C@@]12C[C@@H]1CN(c1ccc(-n3ccc(OCc4ccccc4)cc3=O)cn1)C2 (relative stereo)	0.00803
N[C@@H]1CN(c2ccc(-n3ccc(OCc4ccccc4)cc3=O)cn2)C[C@H]1C(F)(F)F (relative stereo)	0.234
N[C@@]12C[C@@H]1CN(c1ccc(-n3ccc(OCc4ccccc4)cc3=O)cn1)C2 (relative stereo)	0.0166
N[C@]12CCC[C@H]1CN(c1ccc(-n3ccc(OCc4ccccc4)cc3=O)cn1)C2 (relative stereo)	0.0208
O=c1cc(OCc2ccccc2)ccn1-c1ccc(N2CC[C@@H]3CNC[C@@H]32)nc1 (relative stereo)	0.00592
O=c1cc(OCc2ccccc2)ccn1-c1ccc(N2C[C@H](O)[C@@H](N3CCCC3)C2)nc1 (relative stereo)	0.0867
O=c1cc(OCc2ccccc2)ccn1-c1ccc(N2C[C@H](O)[C@@H](N3CCCCC3)C2)nc1 (relative stereo)	0.0402
O=c1cc(OCc2ccccc2)ccn1-c1ccc(N2C[C@H]3CCC[C@@H](O)[C@H]3C2)nc1 (relative stereo)	0.0347
O=c1cc(OCc2ccccc2)ccn1-c1ccc(N2C[C@H]3CC[C@@H]2C3)nc1 (relative stereo)	0.0761
C[C@H]1CN(c2ccc(-n3ccc(OCc4ccccc4)cc3=O)cn2)C[C@]1(C)N (relative stereo) [74]	0.00737
N[C@]12CCCC[C@H]1CN(c1ccc(-n3ccc(OCc4ccccc4)cc3=O)cn1)C2 (relative stereo) [75]	0.024
C[C@H]1CN(c2ccc(-n3ccc(OCc4ccccc4)cc3=O)cn2)C[C@]1(C)N (relative stereo) [228]	0.00618
N[C@]12CCCC[C@H]1CN(c1ccc(-n3ccc(OCc4ccccc4)cc3=O)cn1)C2 (relative stereo) [229]	2.48
CN(C)C1CCCN(c2ccc(-n3ccc(OCc4ccccc4)cc3=O)cn2)C1 (single isomer, unassigned) [38a]	0.0499
CN(C)C1CCCN(c2ccc(-n3ccc(OCc4ccccc4)cc3=O)cn2)C1 (single isomer, unassigned) [38b]	0.00716
CC(=O)N(C)C1CCCN(c2ccc(-n3ccc(OCc4ccccc4)cc3=O)cn2)C1 (single isomer, unassigned) [42a]	0.0244
CC(=O)N(C)C1CCCN(c2ccc(-n3ccc(OCc4ccccc4)cc3=O)cn2)C1 (single isomer, unassigned) [42b]	0.127
O=c1cc(OCc2ccccc2)ccn1-c1ccc(N2CCC(N3CCC3)C2)nc1 (single isomer, unassigned) [62a]	0.0168
O=c1cc(OCc2ccccc2)ccn1-c1ccc(N2CCC(N3CCC3)C2)nc1 (single isomer, unassigned) [62b]	0.0114
O=c1cc(OCc2ccc(F)cc2)ccn1-c1ccc(N2CCC(N3CCC3)C2)nc1 (single isomer, unassigned) [89a]	0.00345
O=c1cc(OCc2ccc(F)cc2)ccn1-c1ccc(N2CCC(N3CCC3)C2)nc1 (single isomer, unassigned) [89b]	0.00506

Next, values leading:

Ki [µM]	Structure (SMILES)
0.00531	CC(C)(C)OC(=O)N1CCC[C@@H]2CN(c3ccc(-n4ccc(OCc5ccc(Cl)cc5)cc4=O)cn3)C[C@@H]21
0.00823	CC(C)(C)OC(=O)N1CCC[C@H]2CN(c3ccc(-n4ccc(OCc5ccc(Cl)cc5)cc4=O)cn3)C[C@H]21
0.0947	CC1(N)CN(c2ccc(-n3ccc(OCc4ccc(F)cc4)cc3=O)cn2)C1
0.105	CNC1(C)CN(c2ccc(-n3ccc(OCc4ccc(F)cc4)cc3=O)cn2)C1
0.0127	CN[C@@H]1CCN(c2ccc(-n3ccc(OCc4ccc(F)cc4)cc3=O)cn2)C1
0.0426	COC(=O)N1CCC[C@@H]2CN(c3ccc(-n4ccc(OCc5ccc(F)cc5)cc4=O)cn3)C[C@@H]21
0.042	COC(=O)N1CCC[C@H]2CN(c3ccc(-n4ccc(OCc5ccc(F)cc5)cc4=O)cn3)C[C@H]21
0.00568	N[C@@H]1CCN(c2ccc(-n3ccc(OCc4ccc(F)cc4)cc3=O)cn2)C1
0.00323	O=c1cc(OCc2ccc(Cl)cc2)ccn1-c1ccc(N2C[C@@H]3CCCN[C@@H]3C2)nc1
0.0029	O=c1cc(OCc2ccc(Cl)cc2)ccn1-c1ccc(N2C[C@H]3CCCN[C@H]3C2)nc1
0.711	O=c1cc(OCc2ccc(F)cc2)ccn1-c1ccc(N2C[C@@H](O)[C@@H](O)C2)nc1
0.00486	O=c1cc(OCc2ccc(F)cc2)ccn1-c1ccc(N2C[C@@H]3CCCN[C@@H]3C2)nc1
0.00448	O=c1cc(OCc2ccc(F)cc2)ccn1-c1ccc(N2C[C@H]3CCCN[C@H]3C2)nc1
0.00446	O=c1cc(OCc2ccc(F)cc2)ccn1-c1ccc(N2C[C@H]3CNC[C@H]3C2)nc1
0.0366	CN(C)[C@H]1CN(c2ccc(-n3ccc(OCc4ccc(Cl)cc4)cc3=O)cn2)C[C@@H]1O (relative stereo)
0.0855	CN(C)[C@H]1CN(c2ccc(-n3ccc(OCc4ccccc4)cc3=O)cn2)C[C@@H]1O (relative stereo)
0.0495	CN[C@@H]1CN(c2ccc(-n3ccc(OCc4ccc(Cl)cc4)cc3=O)cn2)C[C@H]1O (relative stereo)
0.133	CN[C@@H]1CN(c2ccc(-n3ccc(OCc4ccc(F)cc4)cc3=O)cn2)C[C@H]1O (relative stereo)
0.188	CN[C@@H]1CN(c2ccc(-n3ccc(OCc4ccccc4)cc3=O)cn2)C[C@H]1O (relative stereo)
0.0348	O=c1cc(OCc2ccc(Cl)cc2)ccn1-c1ccc(N2C[C@H](O)[C@@H](N3CCCC3)C2)nc1 (relative stereo)
0.0258	O=c1cc(OCc2ccc(Cl)cc2)ccn1-c1ccc(N2C[C@H](O)[C@@H](N3CCCCC3)C2)nc1 (relative stereo)
0.0199	CNC1CCCN(c2ccc(-n3ccc(OCc4ccccc4)cc3=O)cn2)C1 (single isomer, unassigned) [41a]
0.0192	CNC1CCCN(c2ccc(-n3ccc(OCc4ccccc4)cc3=O)cn2)C1 (single isomer, unassigned) [41b]
0.0285	CC(=O)N(C)C1CCN(c2ccc(-n3ccc(OCc4ccc(F)cc4)cc3=O)cn2)C1 (single isomer, unassigned) [82a]
0.0367	CC(=O)N(C)C1CCN(c2ccc(-n3ccc(OCc4ccc(F)cc4)cc3=O)cn2)C1 (single isomer, unassigned) [82b]
0.00267	O=c1cc(OCc2ccc(Cl)cc2)ccn1-c1ccc(N2CCC(N3CCC3)C2)nc1 (single isomer, unassigned) [100a]
0.00982	O=c1cc(OCc2ccc(Cl)cc2)ccn1-c1ccc(N2CCC(N3CCC3)C2)nc1 (single isomer, unassigned) [100b]
